# Biological target: Chitotriosidase-1 (Homo sapiens, UniProt Q13231)
# Chains of the proteins cited; added tags and fusions are not shown. Lines headed by an entry give the natural chain unless they say otherwise; changes in a name come on top.
# UniProt Q13231: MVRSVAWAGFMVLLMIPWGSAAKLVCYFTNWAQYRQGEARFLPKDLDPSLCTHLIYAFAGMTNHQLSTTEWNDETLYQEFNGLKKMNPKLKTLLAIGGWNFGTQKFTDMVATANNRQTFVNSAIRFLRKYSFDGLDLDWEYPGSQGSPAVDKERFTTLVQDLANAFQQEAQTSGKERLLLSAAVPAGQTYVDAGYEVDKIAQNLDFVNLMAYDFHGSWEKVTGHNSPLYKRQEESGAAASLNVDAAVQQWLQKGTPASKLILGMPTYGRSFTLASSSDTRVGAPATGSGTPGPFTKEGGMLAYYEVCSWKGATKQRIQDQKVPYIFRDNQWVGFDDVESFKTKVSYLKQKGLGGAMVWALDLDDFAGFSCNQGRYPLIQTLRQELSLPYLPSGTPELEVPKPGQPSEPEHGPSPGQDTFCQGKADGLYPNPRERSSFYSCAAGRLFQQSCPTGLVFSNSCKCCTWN
# Assay: ASSAY_NAME: HumanCHIT1 Activity Assay DESCRIPTION: An enzymatic assay with recombinant human CHIT1 was used in order to establish inhibitory activity of the compounds (Boot et al., 2001, JBC: 276). The assay was run in the 96-well plate format, each reaction in the total volume of 100 μL. 4-methylumbelliferyl β-D-N,N′,N″-triacetylchitotriose was used as a substrate for the en
smiles,measurement,value
"Nc1nnc(N2CCC(N3CCC[C@@H]3c3cccc(Cl)c3)CC2)[nH]1 [US10538508, Example 24]",IC50,< 100 nM
